These results are taken from US20230002377A1, “THERAPEUTIC COMBINATIONS OF DRUGS AND METHODS OF USING THEM” (HARMONY BIOSCIENCES, LLC, priority 2020, published 2023).

Protein sequences, listed by entry. Tags and fused reporters are not part of them.
UniProt P31645, whole entry: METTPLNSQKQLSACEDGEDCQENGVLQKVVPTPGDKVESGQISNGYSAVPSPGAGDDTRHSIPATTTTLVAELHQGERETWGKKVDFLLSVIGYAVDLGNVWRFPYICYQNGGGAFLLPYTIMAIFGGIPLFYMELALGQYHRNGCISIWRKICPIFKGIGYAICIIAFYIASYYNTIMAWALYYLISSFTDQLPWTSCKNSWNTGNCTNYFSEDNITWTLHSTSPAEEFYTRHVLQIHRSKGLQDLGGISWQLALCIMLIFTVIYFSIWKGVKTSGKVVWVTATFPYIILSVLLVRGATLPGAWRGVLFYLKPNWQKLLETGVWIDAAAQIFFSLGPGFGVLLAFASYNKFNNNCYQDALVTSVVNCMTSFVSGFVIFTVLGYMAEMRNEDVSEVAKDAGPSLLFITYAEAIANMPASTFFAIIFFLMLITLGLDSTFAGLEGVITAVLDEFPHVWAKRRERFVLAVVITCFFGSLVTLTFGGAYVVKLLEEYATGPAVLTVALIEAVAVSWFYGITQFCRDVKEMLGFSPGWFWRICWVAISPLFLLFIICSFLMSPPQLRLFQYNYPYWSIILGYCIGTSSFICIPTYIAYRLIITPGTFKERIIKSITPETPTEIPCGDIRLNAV

The inhibition is the share of the control response that was lost under treatment.

Like-named read-outs stand apart in the source and are kept apart here.

For test [1], the target named is T1, Transporter, Serotonin (5-Hydroxytryptamine) (SERT) (Homo sapiens, UniProt P31645).
In test [2] the target is T1, Transporter, Serotonin (5-Hydroxytryptamine) (SERT). Briefly: biochemical. The note with it: read-out: SERT, % inhibition, 100 nM compound.

As for `[2H]C1([2H])NC([2H])([2H])C([2H])(c2ccc(Cl)c(Cl)c2)c2ccc(-c3ccc4ncnn4c3)cc21` (single isomer, unassigned) [Compound 8A, 7-([1,2,4]triazolo[1,5-a]pyridin-6-yl)-4-(3,4-dichlorophenyl)-1,2,3,4-tetrahydroisoquinoline-1,1,3,3,4-d5], the “SERT, % inhibition” value in test [1] (100 nM compound, 0.1 µM) worked out at 91%.

Take `[2H]C1([2H])NC([2H])([2H])C([2H])(c2ccc(Cl)c(Cl)c2)c2ccc(-c3ccc4ncnn4c3)cc21` (single isomer, unassigned) [Compound 8B, 7-([1,2,4]triazolo[1,5-a]pyridin-6-yl)-4-(3,4-dichlorophenyl)-1,2,3,4-tetrahydroisoquinoline-1,1,3,3,4-d5]: the “SERT, % inhibition” value in test [1] (10 nM compound, 0.01 µM) is recorded as 34%; in test [1] (100 nM compound, 0.1 µM), 51%.

Take `[2H]C1([2H])NCC(c2ccc(Cl)c(Cl)c2)c2ccc(-c3ccc4ncnn4c3)cc21` (single isomer, unassigned) [Compound 12A, 7-([1,2,4]triazolo[1,5-a]pyridin-6-yl)-4-(3,4-dichlorophenyl)-1,2,3,4-tetrahydroisoquinoline-1,1-d2]: the “SERT, % inhibition” value was found to be 54% in test [1] (10 nM compound, 0.01 µM) and 94% in test [1] (100 nM compound, 0.1 µM).

Consider `[2H]C1([2H])NCC(c2ccc(Cl)c(Cl)c2)c2ccc(-c3ccc4ncnn4c3)cc21` (single isomer, unassigned) [Compound 12B, 7-([1,2,4]triazolo[1,5-a]pyridin-6-yl)-4-(3,4-dichlorophenyl)-1,2,3,4-tetrahydroisoquinoline-1,1-d2], for which the “SERT, % inhibition” value stood at 21% in test [1] (10 nM compound, 0.01 µM) and 54% in test [1] (100 nM compound, 0.1 µM).

Take `[2H]C1([2H])NCc2cc(-c3ccc4ncnn4c3)ccc2C1([2H])c1ccc(Cl)c(Cl)c1` (single isomer, unassigned) [Compound 16A, 7-([1,2,4]triazolo[1,5-a]pyridin-6-yl)-4-(3,4-dichlorophenyl)-1,2,3,4-tetrahydroisoquinoline-3,3,4-d3]: the “SERT, % inhibition” value in test [1] (10 nM compound, 0.01 µM) came to 59%; in test [1] (100 nM compound, 0.1 µM), 96%.

As for `[2H]C1([2H])NCc2cc(-c3ccc4ncnn4c3)ccc2C1([2H])c1ccc(Cl)c(Cl)c1` (single isomer, unassigned) [Compound 16B, 7-([1,2,4]triazolo[1,5-a]pyridin-6-yl)-4-(3,4-dichlorophenyl)-1,2,3,4-tetrahydroisoquinoline-3,3,4-d3], the “SERT, % inhibition” value is listed as 2% in test [1] (10 nM compound, 0.01 µM) and 46% in test [1] (100 nM compound, 0.1 µM).

Consider `Clc1ccc(C2CNCc3cc(-c4ccc5ncnn5c4)ccc32)cc1Cl` (stereo not drawn) [Formula I, 7-([1,2,4]triazolo[1,5-a]pyridin-6-yl)-4-(3,4-dichlorophenyl)-1,2,3,4-tetrahydroisoquinoline], for which the inhibition at 0.1 µM in test [2] was 91%.
